“And” between values parts separate entries of the source, which are not always exact repeats. Identical values can stand only once. The list shows a part of the results, in another mix than the full data. The source made the active and inactive calls. Rule as the data show it: active = activation above about 30%; inactive = the rest.

By UniProt entry, the sequences of proteins in these tests, tags left out.
UniProt P21728, whole entry, looked up: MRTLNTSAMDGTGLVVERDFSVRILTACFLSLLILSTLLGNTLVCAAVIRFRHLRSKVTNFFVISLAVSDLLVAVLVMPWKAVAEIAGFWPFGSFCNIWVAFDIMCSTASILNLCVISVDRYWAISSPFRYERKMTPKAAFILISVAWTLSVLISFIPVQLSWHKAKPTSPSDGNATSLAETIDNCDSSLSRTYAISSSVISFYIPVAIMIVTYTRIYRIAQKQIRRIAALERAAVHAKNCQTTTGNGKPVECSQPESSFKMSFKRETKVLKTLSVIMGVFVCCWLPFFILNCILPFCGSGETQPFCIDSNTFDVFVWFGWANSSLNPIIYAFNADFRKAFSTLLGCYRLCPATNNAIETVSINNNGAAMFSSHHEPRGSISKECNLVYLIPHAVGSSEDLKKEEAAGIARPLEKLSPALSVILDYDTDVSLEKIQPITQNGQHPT

The assay concerns the target D(1A) dopamine receptor (Homo sapiens) (UniProt P21728). Put plainly: Allosteric Agonists of the Human D1 Dopamine Receptor: qHTS. Also: 0% is about no effect. Particulars: HEK293 T-REx D1 cells, calcium flux, agonist mode; at 2 µM; hits give high values. From the text: NIH Chemical Genomics Center [NCGC] NIH Molecular Libraries Probe Centers Network [MLPCN] MLPCN Grant: NS064831-01 Assay Submitter (PI): David Sibley Dopamine receptors (DARs) are involved in the etiology and/or therapy of a number of neuropsychiatric and endocrine disorders. For instance, all receptor-based antiparkinsonian drugs work via stimulating the D1 DAR subtype whereas all FDA-approved antipsychotic agents are antagonists of this receptor. […] There are three different types of allosteric modulators that we are seeking, two of which will stimulate or augment receptor signaling, allosteric agonists and potentiators, while the third, allosteric antagonists, will attenuate receptor signaling. The present primary screening assay measures compound agonism by tracking calcium flux in a […], inducible Hek293 Trex D1 cell line.
Freshly passaged cells are plated in 1536 well black, clear bottom plates at a density of 4000 cells/well in 3 ul of complete media containing 1x tetracycline inducer. After an overnight incubation at […] in 5% CO2, cells are loaded with 2 ul of the no wash Calcium Assay Kit (ABD Bioquest) and incubated at room temperature for 30 to 90 minutes. Agonist read: A 10 cycle (1 second/cycle) baseline measurement is taken and then the FDSS online 1536 pintool delivers 23 nl of compound library (as well as dopamine controls) to the plate. The plate is measured for kinetically at 1 cycle/sec for 180 seconds and is considered to be the agonist portion of the assay (eg, compounds which activate a positive calcium response during this portion are flagged as potential agonists). Following the 180 second read, 1 ul of either an EC20 (positive modulation assay) or EC80 (negative modulation assay) is delivered by an onboard pipette head. Measurements are taken kinetically for an additional 180 seconds.
For `Nc1cc(N)c2nonc2c1[N+](=O)[O-]`, the activation is inactive: 2.03%.
In the case of `Cc1c2non([O-])c-2c(C)[n+](=O)[n+]1[O-]` it was inactive: -1.26%; in that of `O=C(NC(Sc1ccncn1)C(Cl)(Cl)Cl)c1ccccc1` (stereo unspecified), inactive: 2.19%.
Then `Oc1ccccc1CNc1ccccn1`, with inactive: 1.16%; and `Cc1ccc(OP(=O)(Nc2nccs2)Oc2ccc(C)cc2)cc1`, with inactive: 1.3%; and `COc1ccccc1OP(=O)(Nc1ccc(C)cn1)Oc1ccccc1OC`, with inactive: -0.659%.
Then `Clc1ccc(Cl)c(NC2=NCC(CBr)S2)c1` (stereo unspecified), with inactive: 2.89%.
With `CN1CCCC(OC(=O)C(c2ccccc2)c2ccccc2)C1` (stereo unspecified), the activation is inactive: 5.72%.
Then `NC(=O)c1cc([N+](=O)[O-])cc([N+](=O)[O-])c1N`, with inactive: 4.2%; and `Cc1ccc(N/C(=N/P(=O)(N2CCOCC2)N2CCOCC2)N2CCOCC2)cc1`, with inactive: 4.87%; and `CN(C(=O)Cc1ccc(Cl)c(Cl)c1)[C@H]1CCCC[C@H]1N1CCCC1`, with inactive: 2.69%.
Then `CCN(N=Nc1nonc1N)c1nonc1N`, with inactive: 2.91%; and `Nc1cccc2ccc([As](=O)(O)O)cc12`, with inactive: 1.11%.
Then `O=[N+]([O-])c1cc([N+](=O)[O-])c(CCN2CCOCC2)c([N+](=O)[O-])c1`, with inactive: 2.48%; and `Cc1ccc(NP(=O)(Oc2ccccc2F)Oc2ccccc2F)nc1`, with inactive: 2.97%; and `CCOP(=O)(Nc1ccccc1)OCC`, with inactive: 3.38% and inactive: 1.4%.
As to `Cc1cc(SC(NC(=O)c2ccc(F)cc2)C(Cl)(Cl)Cl)ncn1` (stereo unspecified), the activation was inactive: 1.86%.
In the case of `O=C(O)c1ccccc1[As](=O)(O)O` it was inactive: 1.64%; in that of `CC(=O)Nc1ccc([As](=O)(O)O)cc1`, inactive: 4.09%.
In the case of `O=P(Nc1nc2ccc(Cl)cc2s1)(c1ccccc1)c1ccccc1` it was inactive: 6.06%; in that of `O=[N+]([O-])c1cccc(NC2=NCC(CBr)S2)c1` (stereo unspecified), inactive: 6%.
In the case of `O=C(O)CNc1ccc([As](=O)(O)O)cc1` it was inactive: 3.53%; in that of `CC(C)(C)C(=O)NC(Sc1ccncn1)C(Cl)(Cl)Cl` (stereo unspecified), inactive: 1.87%; in that of `O=[N+]([O-])c1ncn(CCn2ncnc2[N+](=O)[O-])n1`, inactive: 2.85%.
For `O=C(Nc1cc([As](=O)(O)O)ccc1O)c1ccccc1`, the activation was inactive: 4.26%.
In the case of `CN(C)C(=O)OCCc1n(C)cc[n+]1C` it was inactive: -1.36%; in that of `CC(C)=N/N=C(\N)N[N+](=O)[O-]`, inactive: 3.1%; in that of `CC1CCN(C(=O)Oc2c(Cl)cc(Cl)c3cccnc23)CC1`, inactive: 8.37%.
Then `C[N+]1=C2C=CC=CC=C2SC12C([N+](=O)[O-])=CC([N+](=O)[O-])=C[C-]2[N+](=O)[O-]` (stereo unspecified), with inactive: 9.81%; and `Nc1ccc([As](=O)(O)c2ccc(N)cc2)cc1`, with inactive: 0.339%.
In the case of `CCN(/C(=N/P(=O)(N1CCOCC1)N1CCOCC1)N1CCOCC1)c1ccc(OC)cc1` it was inactive: -0.301%.
Take `CC(=O)N1C2C3N(C(C)=O)C1C1N(C(C)=O)C(C(N1C(C)=O)N3C(C)=O)N2C(C)=O`: the activation was inactive: 1.03%.
On to `O=[N+]([O-])c1cccc2n[nH]nc12`, for which the activation is inactive: 2.49%.
Then `O=[N+]([O-])c1cc([N+](=O)[O-])c(CCNc2ccccc2)c([N+](=O)[O-])c1`, with inactive: 1.47%; and `CCc1nc2c(n1)c1c(non1O)c1c2no[n+]1[O-]`, with inactive: 1.15%.
In the case of `Cc1ccc(NP(=O)(Oc2ccccc2)Oc2ccccc2)nc1` it was inactive: 0.19%; in that of `COc1ccc(C2=NCC(CBr)S2)cc1` (stereo unspecified), inactive: 1.22%; in that of `c1nnnn1CCn1cnnn1`, inactive: 2.04%.
Consider `O=P(Nc1nccs1)(c1ccccc1)c1ccccc1`, for which the activation was inactive: 0.977%.
Then `CC(C)C(=O)NC(Sc1ccccc1)C(Cl)(Cl)Cl` (stereo unspecified), with inactive: -0.224%; and `Nc1ccc([As](=O)(O)c2ccc([N+](=O)[O-])cc2)cc1`, with inactive: 0.909%.
Then `C(Cc1nn[nH]n1)Cc1nn[nH]n1`, with inactive: 0.2%; and `O=C(OC1CN2CCC1CC2)c1cccc(Cl)c1` (stereo unspecified), with inactive: 5.3%.
Turning to `O=[N+]([O-])c1ncn(CCn2cnc([N+](=O)[O-])n2)n1`, the activation was inactive: 1.52%.
In the case of `CC(=O)NC(SC(=S)N(C)C)C(Cl)(Cl)Cl` (stereo unspecified) it was inactive: 5.6%.
Then `O=[N+]([O-])c1ccc(O)c(/C=N/Nc2ccc([N+](=O)[O-])cc2[N+](=O)[O-])c1`, with inactive: 23.5%; and `O=[As](O)(c1ccccc1)c1ccc(O)cc1`, with inactive: 3.24%; and `C[C@H]1OP(=O)(Oc2ccccc2)[C@H](O)[C@H](O)[C@H]1N=[N+]=[N-]` (stereo partly specified), with inactive: 3.87%.
For `O=P(Nc1nc2ccccc2s1)(c1ccccc1)c1ccccc1`, the activation was inactive: 1.13%.
With `CN(C)C1(CNC(=O)c2ccc(Cl)c(S(N)(=O)=O)c2)CCCCC1`, the activation was inactive: 1.07%.
In the case of `O=P(Nc1ccccn1)(c1ccc(Br)cc1)c1ccc(Br)cc1` it was inactive: 2.39%; in that of `CN(C)C(=O)Oc1noc2ccccc12`, inactive: 3.06%.
Consider `O=c1c2cc([N+](=O)[O-])ccc2[nH]c2c([N+](=O)[O-])cc([N+](=O)[O-])cc12`, for which the activation was active: 37.5%.
Consider `Cc1ccccc1OP(=O)(Nc1ccccn1)Oc1ccccc1C`, for which the activation is inactive: 1.56%.
Then `Cc1ccc(OP(=O)(Nc2ccccn2)Oc2ccc(C)cc2)cc1`, with inactive: 1.23%; and `CC(=O)NC(SC(=S)N(CC(C)C)CC(C)C)C(Cl)(Cl)Cl` (stereo unspecified), with inactive: 1.77%.
In the case of `COC(=O)c1cc2c(s1)N=C(c1ccccc1)N(C)P2(=O)N1CCOCC1` (stereo unspecified) it was inactive: 1.71%.
In the case of `CCC(=O)N1C2C3N(C(=O)CC)C1C1N(C(=O)CC)C(C(N1C(=O)CC)N3C(=O)CC)N2C(=O)CC` it was inactive: 2.24%.
As for `O=C(OC1CN2CCC1CC2)c1ccccc1` (stereo unspecified), the activation was inactive: 3.4%.
Then `O=C(NC1CCS(=O)(=O)C1)NP(=S)(Oc1ccccc1)Oc1ccccc1` (stereo unspecified), with inactive: 5.08%.
Then `CCNC(=S)/N=C(\N)N[N+](=O)[O-]`, with inactive: 2.66%.
Regarding `CCOC(=O)NC(Sc1ccccc1)C(Cl)(Cl)Cl` (stereo unspecified), the activation is inactive: 2.49%.
In the case of `Cc1ccc(NP(=O)(Oc2cccc(C)c2)Oc2cccc(C)c2)nc1` it was inactive: 1.35%; in that of `c1ccc(-c2nn[nH]n2)c(-c2nn[nH]n2)c1`, inactive: 4.41%; in that of `CC(=O)Nc1ccc(Oc2c([N+](=O)[O-])cc([N+](=O)[O-])cc2[N+](=O)[O-])cc1`, inactive: 0.487%.
Then `CC(=O)Nc1ccc([As](=O)(O)O)c(O)c1`, with inactive: 1.84%; and `CC(=O)c1ccc(N2CC2c2ccncc2)cc1` (stereo unspecified), with inactive: 4.96%; and `C[C@@H]1C=CCP(=O)(Oc2ccccc2)O1` (stereo partly specified), with inactive: 3.3%.
In the case of `C[C@H]1OP(=O)(Oc2ccccc2)C[C@@H]2O[C@@H]21` (stereo partly specified) it was inactive: 3.27%; in that of `Cc1ccccc1CN(C)C(=O)COC(=O)C(O)(c1ccccc1)c1ccccc1`, inactive: 3.83%.
As for `CC(C)(C)C(=O)NC(Sc1ccccc1)C(Cl)(Cl)Cl` (stereo unspecified), the activation was inactive: 0.224%.
Then `CCOc1ccc(C2=NCC(CBr)S2)cc1` (stereo unspecified), with inactive: 0.0712%; and `O=P1(Nc2nc3ccc(Cl)cc3s2)COc2ccccc2O1` (stereo unspecified), with inactive: 0.475%.
As for `CCOP(=O)(Nc1cccc2ccccc12)OCC`, the activation is inactive: 6.76%.
Then `COc1cc(C2NCCC3(OCCO3)C2(C)C)cc(OC)c1OC` (stereo unspecified), with inactive: 2.38%.
In the case of `CCCOP(=S)(Nc1nc(N)cc(=O)[nH]1)OCCC` it was inactive: 1.81%; in that of `Nc1cccc2c([As](=O)(O)O)cccc12`, active: 31.8%; in that of `Cc1ccc(NCCc2c([N+](=O)[O-])cc([N+](=O)[O-])cc2[N+](=O)[O-])cc1`, inactive: 4.76%.
Then `O=[As](O)(c1cccc(O)c1)c1cccc(O)c1`, with inactive: 1.38%.
Turning to `Cc1cccc(OCC(=O)OC2CN3CCC2CC3)c1` (stereo unspecified), the activation was inactive: 0.0229%.
`CS(=O)(=O)c1ccc(Cl)c(NC(=O)COC(=O)C(O)(c2ccccc2)c2ccccc2)c1`: the activation was inactive: 9%.
In the case of `COc1cc(C(=O)NCC2(N3CCOCC3)CCCCC2)cc(Cl)c1OC(C)C` it was inactive: 0.681%.
With `O=[As](O)(O)c1cccnc1`, the activation was inactive: 2.02%.
Then `O=C(OC1CN2CCC1CC2)c1ccc(Cl)cc1` (stereo unspecified), with inactive: 6.15%; and `O=[N+]([O-])c1ccc2c(c1)nnn2O`, with inactive: 0.776%; and `CCOP1(=S)c2c(C)nn(CCC#N)c2N=C(c2ccc(F)cc2)N1C` (stereo unspecified), with inactive: 0.676%.
Then `CN(C(=O)Cc1ccccc1)[C@@H]1CC[C@]2(CCCO2)C[C@H]1N1CCCC1`, with inactive: 0.447%; and `N#CCCN(C(=O)COC(=O)C(O)(c1ccccc1)c1ccccc1)c1ccc(F)cc1`, with inactive: 7.64%.
Then `NC(=O)Nc1ccc([As](=O)(O)O)cc1`, with inactive: 3.63%; and `O=C(O)COc1ccc([As](=O)(O)O)cc1[N+](=O)[O-]`, with inactive: 0.918%; and `Nc1ccccc1[As](=O)(O)c1ccccc1`, with inactive: 2.53%.
With `CS(=O)(=O)c1cc([N+](=O)[O-])c2no[n+]([O-])c2c1`, the activation is inactive: 12.8%.
Then `O=P(Nc1nccs1)(c1ccccc1)c1nc2ccccc2s1` (stereo unspecified), with inactive: 1.36%; and `O=P(Nc1nccs1)(Oc1ccccc1)Oc1ccccc1`, with inactive: 1.03%; and `CCOP1(=S)c2c(C)nn(CCC#N)c2N=C(c2ccccc2F)N1C` (stereo unspecified), with inactive: -0.308%.
Then `NS(=O)(=O)c1cccc(NC(=O)COC(=O)C(O)(c2ccccc2)c2ccccc2)c1`, with inactive: 3.61%; and `O=P1(Nc2ccc(Br)cn2)COc2ccccc2OC1`, with inactive: 3.7%.
Then `O=[As](O)(c1cccs1)c1cccs1`, with inactive: 7.03%; and `Cc1ccc(OCC(=O)OC2CN3CCC2CC3)cc1` (stereo unspecified), with inactive: 4.06%.
Regarding `Nc1cccc([As](=O)(O)c2ccccc2)c1`, the activation is inactive: 6.71%.
In the case of `O=P1(Nc2ncccn2)COc2ccccc2OC1` it was inactive: 2.26%.

Values taken from PubChem BioAssay AID504660 (National Center for Advancing Translational Sciences (NCATS), 2011).
